For one compound, IC50 results are on record in publication PMC2751792 (Journal of the American Chemical Society, 2009).

The chains behind the UniProt entries cited, without tags or fusion partners. Where a name states a change or a piece, a line headed by the entry shows the natural chain unless it says otherwise.
UniProt O15379: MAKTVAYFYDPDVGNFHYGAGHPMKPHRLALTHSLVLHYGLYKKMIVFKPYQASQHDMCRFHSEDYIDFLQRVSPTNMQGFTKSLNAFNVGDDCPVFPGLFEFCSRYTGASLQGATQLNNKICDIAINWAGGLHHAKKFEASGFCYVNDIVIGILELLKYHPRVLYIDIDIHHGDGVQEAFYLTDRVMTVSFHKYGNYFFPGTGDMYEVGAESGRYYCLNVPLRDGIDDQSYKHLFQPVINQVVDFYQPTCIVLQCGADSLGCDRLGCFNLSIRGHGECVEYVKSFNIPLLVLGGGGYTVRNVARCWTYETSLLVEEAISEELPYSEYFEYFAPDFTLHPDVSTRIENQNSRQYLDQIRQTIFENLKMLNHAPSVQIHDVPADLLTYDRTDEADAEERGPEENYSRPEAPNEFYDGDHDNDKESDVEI
UniProt Q13547, whole entry: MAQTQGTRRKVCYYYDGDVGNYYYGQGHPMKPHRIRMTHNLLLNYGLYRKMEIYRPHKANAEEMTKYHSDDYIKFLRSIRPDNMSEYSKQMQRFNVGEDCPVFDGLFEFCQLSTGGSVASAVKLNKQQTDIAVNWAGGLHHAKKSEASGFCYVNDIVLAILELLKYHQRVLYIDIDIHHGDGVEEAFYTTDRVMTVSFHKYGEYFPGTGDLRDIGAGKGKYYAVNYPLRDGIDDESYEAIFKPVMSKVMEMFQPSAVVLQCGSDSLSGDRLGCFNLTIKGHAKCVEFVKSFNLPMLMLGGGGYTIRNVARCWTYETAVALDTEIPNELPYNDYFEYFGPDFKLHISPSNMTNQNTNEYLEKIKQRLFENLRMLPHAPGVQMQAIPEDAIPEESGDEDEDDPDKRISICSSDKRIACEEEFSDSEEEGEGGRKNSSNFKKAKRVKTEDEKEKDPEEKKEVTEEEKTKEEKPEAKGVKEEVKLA

Format in all cases: biochemical
One assay addresses recombinant human HDAC3 (Homo sapiens, UniProt O15379). Briefly: Recombinant HDAC isoform inhibition, HDAC3.
The target of the next assay is T1, recombinant human HDAC6 (Homo sapiens, UniProt Q9UBN7).
T1 sequence (Q9UBN7 1-1215): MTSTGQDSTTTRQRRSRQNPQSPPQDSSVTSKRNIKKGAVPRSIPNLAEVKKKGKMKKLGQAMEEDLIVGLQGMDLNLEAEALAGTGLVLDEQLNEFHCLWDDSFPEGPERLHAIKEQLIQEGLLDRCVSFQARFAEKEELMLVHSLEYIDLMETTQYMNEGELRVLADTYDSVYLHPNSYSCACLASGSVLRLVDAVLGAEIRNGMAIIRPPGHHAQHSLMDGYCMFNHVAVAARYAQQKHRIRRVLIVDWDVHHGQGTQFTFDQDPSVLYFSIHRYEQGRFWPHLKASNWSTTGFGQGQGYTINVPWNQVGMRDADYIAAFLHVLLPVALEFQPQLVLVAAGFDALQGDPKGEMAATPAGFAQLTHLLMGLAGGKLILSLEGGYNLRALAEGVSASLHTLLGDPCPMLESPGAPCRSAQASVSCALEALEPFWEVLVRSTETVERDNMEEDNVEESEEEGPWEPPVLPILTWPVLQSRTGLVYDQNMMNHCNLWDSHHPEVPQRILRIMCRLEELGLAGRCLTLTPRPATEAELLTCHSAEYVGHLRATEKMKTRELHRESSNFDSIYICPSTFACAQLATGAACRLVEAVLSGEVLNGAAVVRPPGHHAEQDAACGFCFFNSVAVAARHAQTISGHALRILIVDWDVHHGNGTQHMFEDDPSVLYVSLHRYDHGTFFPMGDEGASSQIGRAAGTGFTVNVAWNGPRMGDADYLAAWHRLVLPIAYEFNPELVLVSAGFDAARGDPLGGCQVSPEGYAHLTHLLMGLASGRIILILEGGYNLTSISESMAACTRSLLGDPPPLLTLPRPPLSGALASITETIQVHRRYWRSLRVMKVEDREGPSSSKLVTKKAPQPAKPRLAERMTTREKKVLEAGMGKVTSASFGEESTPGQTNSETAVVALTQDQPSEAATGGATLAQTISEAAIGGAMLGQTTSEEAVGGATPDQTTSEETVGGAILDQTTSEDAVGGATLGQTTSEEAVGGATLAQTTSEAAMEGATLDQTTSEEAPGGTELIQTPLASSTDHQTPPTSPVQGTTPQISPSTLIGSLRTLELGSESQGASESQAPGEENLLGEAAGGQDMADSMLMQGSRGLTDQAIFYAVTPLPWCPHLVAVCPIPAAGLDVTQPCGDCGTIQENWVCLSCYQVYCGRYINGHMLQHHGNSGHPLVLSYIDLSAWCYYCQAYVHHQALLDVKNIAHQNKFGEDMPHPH
Briefly: Recombinant HDAC isoform inhibition, HDAC6.

The target of the next assay is recombinant human HDAC1 (Homo sapiens, UniProt Q13547). Briefly: Recombinant HDAC isoform inhibition, HDAC1.

Consider `CC(C)C[C@H]1CC(=O)N[C@@H](C)C(=O)N[C@@H](CCCCCC(=O)NO)C(=O)N[C@@H](Cc2c[nH]c3ccccc23)C(=O)N1` [3a], for which the IC50 (as a rule, the point on the concentration scale where inhibition reaches its midpoint) was 25 nM at recombinant human HDAC3, 30 nM at recombinant human HDAC6 and 1.5 nM at recombinant human HDAC1.
